Measurements from US20100260671A1, “COMPOUNDS AND METHODS FOR THE DIAGNOSIS AND TREATMENT OF AMYLOID ASSOCIATED DISEASES” (THE REGENTS OF THE UNIVERSITY OF CALIFORNIA, priority 2007, published 2010).
Where two headings read alike, the source gives them in different places.

Sequences of proteins named here, by UniProt entry; tags and fusion partners are left off. Residues count along the entry.
UniProt P05067, 672-713 limits assumed: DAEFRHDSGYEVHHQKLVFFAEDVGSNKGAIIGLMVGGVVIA

Assays:
[1] = target: Aβ fibrils (binding of anti-Aβ IgG clone 6E10) (Homo sapiens, UniProt P05067); assay: ELISA-based assay: inhibition of anti-Aβ IgG (clone 6E10) binding to Aβ fibrils
[2] = target: Aβ fibrils (binding of anti-Aβ IgG clone AMY-33) (Homo sapiens, UniProt P05067); assay: ELISA-based assay: inhibition of anti-Aβ IgG (clone AMY-33) binding to Aβ fibrils; settings: same conditions as for clone 6E10
Method: An IC50 of 0.4 μM (FIG. 2, panel b) for ThT with this IgG (clone AMY-33) was measured under the same conditions used to assay the first anti-Aβ IgG (clone 6E10). […] No inhibition of the interaction between the IgGs and Aβ fibrils in control experiments using 1-naphthol-4-sulfonate were observed (FIG. 2, panel c).
Excess solutions were then discarded.

Cc1ccc2c(c1)sc(-c1ccc(N(C)C)cc1)[n+]2C.[Cl-] [ThT, Thioflavin T]
IC50 ([1]; read-out: IC50, control procedure with 0.3 μM Aβ peptide, clone 6E10, 0.3 μM solution of Aβ peptide in the control procedure): ~1000 nM | IC50 ([1]; read-out: IC50, fibrils incubated with ThT prior to depositing into wells, clone 6E10, Aβ fibrils 1.3 μM pre-incubated with ThT): 60000 nM | IC50 ([1]; read-out: IC50 for the binding of the anti-Aβ IgG to the Aβ fibrils, clone 6E10, 0.16 μg mL−1, fibrils deposited from 1.3 μM Aβ peptide, then incubated with ThT): 5000 nM | IC50 [2]: 400 nM
